Reference: patent publication US20100256147A1, “BIARYL ACETAMIDE DERIVATIVES AS MODULATORS OF THE KINASE CASCADE FOR THE TREATMENT OF HEARING LOSS, OSTEOPOROSIS AND CELL PROLIFERATION DISORDERS” (priority 2007, published 2010)

Test system: WRL-68
Assay: MTT growth inhibition, WRL-68
Type: cell-based
Settings: Homo sapiens, WRL68, 78 h
Description: Samples of the test compounds are formulated in 100% DMSO to obtain 20 mM stock solutions; stored @ 4° C. The IC50s and IC80s are determined as described below. Huh7, WRL-68, PLC/PRF/5, Hep 3B, and Hep G2 human cancer lines are routinely cultured and maintained in a basal medium containing 2% FBS @ 37° C., 5% CO2. Cells are seeded @ 4.0×10^3/190 μl and 8.0×10^3/190 μl per well of a 96-well plate. The assay medium is basal medium/1.5% FBS. […] The test article dilutions are prepared as follows: 20 mM stock solution samples are diluted serially in basal medium/1.5% FBS using 1:3 dilutions, yielding 20× concentrations; 131 μM to 0.24 nM range. 10 μL of 20× dilutions are added to the appropriate wells (n=3) containing 190 μL cancer cell line; 6561 nM to 0.012 nM range of final concentrations. Vehicle control contains cells, no sample. Medium control contains cells, no sample, 0.03% DMSO (highest DMSO concentration present in samples). The treated cells are incubated for 72 hours at 37° C., 5% CO2. On day 3, 10 μL MTT (5 mg/mL) are added to each well. Cells are incubated in the presence of MTT for 4 hours @ 37° C., 5% CO2. 90 μL 10% SDS(+HCl) is added to each well to lyse cells and solubilize formazan. […] OD570 measurements are taken, e.g., using BioTek Synergy HT multiplatform microplate reader. Growth inhibition curves IC50s and IC80s are determined using GraphPad Prism 5 statistical software.

`Cc1nc(Nc2ncc(C(=O)Nc3c(C)cccc3Cl)s2)cc(N2CCN(CCO)CC2)n1` [Dasatinib] gave an IC50 of 5.65 µM.
